## Apparent affinities of Ab-14 variants for a coronavirus HR2 peptide

All variants were tested on one target, the spike HR2 peptide PDVDLGDISGINAS (SARS-CoV-2).

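The parent was found by panning a naive human phage display library on the peptide. Designed CDR sequences, proposed from the first random library and measured here. Group labels follow the data file (Ctrl: baseline library sampled from a position-specific scoring matrix, with some repeated check sequences; Rand: our label for a block that the file lists under HC and that is probably the random mutants of the ten best first-round binders; GP: Gaussian process model; GPLM: also part of the Gaussian process libraries; HC: hill climbing; Gen: genetic algorithm; Gibbs: Gibbs sampling; a sequence that several methods proposed may carry one label only). In AlphaSeq, yeast of one mating type display the scFv and yeast of the other type display the target. The frequency of each diploid, read from paired DNA barcodes, reflects how well the two displayed proteins bind. A regression on co-assayed BCL2-family reference pairs converts the normalised counts of each replicate to an apparent Kd. Each pool was mated in six replicate cultures.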

Ab-14 is the parent antibody, in scFv form: VH, then a (GGGGS)3 linker, then VL. The light chain is unchanged in all variants.
VH: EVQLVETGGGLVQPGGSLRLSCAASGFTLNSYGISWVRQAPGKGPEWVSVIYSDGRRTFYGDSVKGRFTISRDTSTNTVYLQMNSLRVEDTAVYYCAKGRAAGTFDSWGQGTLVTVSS
VL: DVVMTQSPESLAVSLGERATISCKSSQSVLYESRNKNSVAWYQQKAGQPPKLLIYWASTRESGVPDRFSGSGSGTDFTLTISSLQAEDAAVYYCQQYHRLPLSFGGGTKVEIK

Changes read parent residue, position, new residue, counted from the first residue of the VH shown.
Variants here have at most six changes.
The read-out is the apparent dissociation constant on a log10 scale (nM): the lower, the stronger.
Averages over replicates are reported, and they cover detected replicates only.
"nd" means that the variant was in the library but no mating with the target was seen in any replicate; the authors take this as a sign of poor binding, and no number exists.

With T28D/S31Q/S53E/T58E/G61S/T104F [Rand] the result was nd (0 of 6 replicates).
With Y32G/G61S/A102G/T104S [Rand] the result was nd (0 of 6 replicates).
With T28D/R100E/S107F [GPLM_Gibbs] the result was 0.82 (6 of 6 replicates).
With G61A/S63F/R100W/F105K [Ctrl] the result was nd (0 of 6 replicates).
With T28D/G61S/A102G/T104K [GPLM_HC] the result was 1.25 (6 of 6 replicates).
With S31D/A101Q/A102Q/G103L/D106I [Rand] the result was nd (0 of 6 replicates).
With T28A/S31E/G61T/R100E/A101Q [GP_HC] the result was 1.22 (4 of 6 replicates).
With N30D/S35H/R100P/S107L [Ctrl] the result was 1.99 (1 of 6 replicates).
With N30L/S63Q/A101H [Ctrl] the result was nd (0 of 6 replicates).
With V64Y/R100D [Ctrl] the result was nd (0 of 6 replicates).
With T28Q/R100W/A101V/S107T [GP_Gibbs] the result was 1.21 (6 of 6 replicates).
With T28S/R100N/A101E/S107T [GP_Gen] the result was -0.27 (6 of 6 replicates).
With T28E/G61L/A101T [GPLM_Gen] the result was 0.27 (6 of 6 replicates).
With F59G/G61D/D62G/A101W/T104A/D106N [Ctrl] the result was nd (0 of 6 replicates).
With T28A/R56E/S63K/V64T/R100E [Ctrl] the result was 2.68 (1 of 6 replicates).
With S53A/A102S [Ctrl] the result was 0.52 (5 of 6 replicates).
With T28D/F59W/R100Q [GPLM_Gibbs] the result was 0.49 (6 of 6 replicates).
With T28G/S31E/G61H [GPLM_Gen] the result was 0.12 (6 of 6 replicates).
With S31E/G33A/G99L/G103V/S107Q [Rand] the result was nd (0 of 6 replicates).
With N30E/G61D/R100Q/A101I [GP_HC] the result was 0.61 (6 of 6 replicates).
With A102T [Ctrl] the result was nd (0 of 6 replicates).
With S53A/Y60G/T104K/F105N/D106K [Rand] the result was nd (0 of 6 replicates).
With G26D/G61S/R100Q/A101L [GP_HC] the result was 1.63 (6 of 6 replicates).
With T28D/R100N/A101E [GPLM_Gen] the result was 0.02 (6 of 6 replicates).
With F27T/S53A/D106K [GP_HC] the result was nd (0 of 6 replicates).
With I34T/A101L/S107V [Ctrl] the result was nd (0 of 6 replicates).
With S31D/F59Q/G61I/G103S [Rand] the result was nd (0 of 6 replicates).
With R100T/A101I [Ctrl] the result was 0.39 (6 of 6 replicates).
With N30M/G61K/R100Q/A101L [GPLM_HC] the result was nd (0 of 6 replicates).
With S53A/G99W/S107H [Ctrl] the result was nd (0 of 6 replicates).
With S31E/Y32M/G103V/S107T [GP_HC] the result was nd (0 of 6 replicates).
With T28E/S31E/S63W/A101T [GP_Gen] the result was nd (0 of 6 replicates).
With T28S/G61K/A101T [GPLM_Gen] the result was 0.36 (6 of 6 replicates).
With N30E/G61A/R100Q/S107T [GP_Gibbs] the result was 0.45 (6 of 6 replicates).
With T28S/R100Q/A101T/S107R [GPLM_Gen] the result was 0.97 (5 of 6 replicates).
With T28G/S35T/G61Q [Ctrl] the result was nd (0 of 6 replicates).
With T28N/S63N/R100E [GP_Gen] the result was 0.57 (6 of 6 replicates).
With Y32R/A102Q/S107H [Ctrl] the result was nd (0 of 6 replicates).

The closing 5 entries, repeated:

With N30E/G61A/R100Q/S107T [GP_Gibbs] the result was 0.45 (6 of 6 replicates).
With T28S/R100Q/A101T/S107R [GPLM_Gen] the result was 0.97 (5 of 6 replicates).
With T28G/S35T/G61Q [Ctrl] the result was nd (0 of 6 replicates).
With T28N/S63N/R100E [GP_Gen] the result was 0.57 (6 of 6 replicates).
With Y32R/A102Q/S107H [Ctrl] the result was nd (0 of 6 replicates).

In the paper, a design with two or fewer of six values counts as a poor binder.
Values of this round are not directly comparable with the first-round values of the same sequences.
Of ten entries with the parent sequence, four were seen in most replicates (averages 0.34 to 2.37), three in one and three in none, so single entries are noisy.
Background: pairings of all heavy chain designs with three empty control strains gave a value in 1% of cases (median 2.08, 5th percentile 0.84). Values in that range, when seen in few replicates, are hard to tell from nonspecific mating.

Data: MIT Lincoln Laboratory AlphaSeq set, Li et al. 2023, doi:10.1038/s41467-023-39022-2, as distributed in FLAb.